Data taken from paper PMC7150891, “Mertansine Inhibits mRNA Expression and Enzyme Activities of Cytochrome P450s and Uridine 5′-Diphospho-Glucuronosyltransferases in Human Hepatocytes and Liver Microsomes” (Pharmaceutics, 2020).

System: UGT1A1 mRNA
Test: UGT1A1 mRNA level in human hepatocytes after 48 h treatment (RT-PCR)
Conditions: Omeprazole 50 μM, Lot 361

## COc1ccc2[nH]c([S+]([O-])Cc3ncc(C)c(OC)c3C)nc2c1 (stereo not shown) [Omeprazole, omeprazole]
  UGT1A1 mRNA (Fold Change): 3.9 ± 0.24 Fold Change
